Data reported in US20020137154A1, “Methods for improving cell growth and alcohol production during fermentation” (priority 2000, published 2002).

Assays:
Assay type in all cases: cell-based
[1] = test system: recombinant Escherichia coli KO11; test: Batch fermentation of E. coli KO11 in 1% CSL medium and xylose with nutrient additives: ethanol production and cell growth; details: for activity at 2000 µg/mL: Escherichia coli
Experimental: (§1) Two types of media were tested: 1% CSL and Luria broth (LB). Each contained 97 g of either xylose or glucose per liter. Luria Broth consists of, per liter: 10 g Difco® Tryptone, 5 g Difco® Yeast Extract and 5 g NaCl. The 1% CSL medium consists of Corn Steep Liquor (1% w/v) plus mineral salts (mineral salts per liter: 1 g of KH2PO4. 0.5 g of K2HPO4, 3.1 g of (NH4)2SO4, 0.4 g of MgCl2·6H2), and 20 mg FeCl3·6H2O).
(§2) Luria Broth was prepared by autoclaving a 2× nutrient stock containing, per liter: 20 g Difco® Tryptone, 10 g Difo® Yeast Extract, and 10 g NaCl. Sugars (xylose or glucose) were autoclaved separately. A 1% CSL medium was prepared as follows: Commercial Corn Steep Liquor (CSL; 50% dry weight/50% water) was diluted with tap water to make a 20X stock containing 100 g dry weight of Corn Steep Liquor/L and was adjusted to pH 7.2 with NaOH (50%). After sterilization by autoclaving, the 20X CSL stock was clarified by centrifugation at 5000×g for 10 minutes. Magnesium was added as a 100× stock solution (40 g/L MgCl2·6H2O). Iron was added as a 1000× stock solution made by dissolving 20 g FeCl3·6H2O in 175 mL of HCl and adjusting to 1 L with sterile water. Nitrogen, sulfur and phosphorus were added using a 20× stock solution containing the following (per liter): 20 g of KH2PO4, 10 g of K2HPO4 and 62 g of (NH4)2SO4. Stock solutions containing minerals were sterilized separately by autoclaving. Final media was prepared by adding 750 mL of water to 1 L bottle containing 100 g of xylose or glucose.
Inocula were grown in same media used for fermentation and were prepared as follows. Three colonies from a fresh plate were used to inoculate seed cultures: 250-mL flask containing 100 mL medium. These cultures were grown with agitation (120 rpm) for 12-16 hours at 35° C. to a final OD550nm of approximately 2.0-2.5. Cells were harvested by centrifugation at 5000×g for 5 minutes, and resuspended in fresh media to an OD550nm of 0.1. The resulting suspension was distributed into 500-mL beakers containing 345 ml each of fermentation medium. Acetaldehyde was added as indicated. Batch fermentations (35° C., 100 rpm) were maintained at pH 6.5 by the automatic addition of 2N KOH. Cell mass, ethanol, and base addition (2N KOH) were recorded during 96 hours of incubation. […]
(§3) Additives (e.g., as listed in Table 1) were dissolved in 5 mL di-H2O. Solutions with pH lower than 5 were neutralized to pH 6.5 with 2N KOH. Nutritional supplements were then filter-sterilized (0.45 μm filter disk) directly into the fermentation vessel containing the culture. The final concentration of all additives in the culture medium was 2 g/L unless otherwise indicated.
(§4) Cell mass was estimated by measuring OD550nm using Baush & Lomb® Spectronic 70 spectrophotometer. […] Ethanol was measured by gas chromatography using a Varian® 3400 CX gas chromatograph with 1-propanol as an internal standard.
(§5) Tables 1, 3, and 5 show time to completion of fermentation, ethanol production, and volumetric productivity of the fermentation for all concentrations of the compound and the control. Maximum ethanol production is shown in grams/liter (g/L). The ethanol yield is shown in grams of ethanol/grams of added sugar. Maximum volumetric productivity is shown in grams ethanol/(liter)(hour). The average productivity is calculated form the start of fermentation to the completion of fermentation is grams ethanol/(liter)hour).
Tables 2, 4, and 6 show the initial growth of the cells (OD taken after the first 24 hours of fermentation) and the maximum cell density (the time which culture reaches the maximum OD value). […]

[2] = test system: recombinant Escherichia coli KO11; test: Batch fermentation of E. coli KO11 in 1% CSL medium and glucose with nutrient additives: ethanol production and cell growth; details: for activity at 2000 µg/mL: Escherichia coli
Experimental: as §1, §2
(§6) Inocula were grown in same media used for fermentation and were prepared as follows. Three colonies from a fresh plate were used to inoculate seed cultures: 250-mL flask containing 100 mL medium. These cultures were grown with agitation (120 rpm) for 12-16 hours at 35° C. to a final OD550nm of approximately 2.0-2.5. Cells were harvested by centrifugation at 5000×g for 5 minutes, and resuspended in fresh media to an OD550nm of 0.1. The resulting suspension was distributed into 500-mL beakers containing 345 ml each of fermentation medium. Acetaldehyde was added as indicated. Batch fermentations (35° C., 100 rpm) were maintained at pH 6.5 by the automatic addition of 2N KOH. Cell mass, ethanol, and base addition (2N KOH) were recorded during 96 hours of incubation.
(§7) Equivalent amounts of distilled water were added instead of the acetaldehyde in control experiments.
as §3, §4, §5
(§8) Tables 2, 4, and 6 show the initial growth of the cells (OD taken after the first 24 hours of fermentation) and the maximum cell density (the time which culture reaches the maximum OD value).
(§9) Acetaldehyde was added to the fermentation medium at five different concentrations and time points. […] Where two additions are indicated, the first volume was added at the start of fermentation and the second was added after 8 hours of fermentation.

[3] = test system: recombinant Escherichia coli KO11; test: Batch fermentation of E. coli KO11 in Luria broth and xylose with nutrient additives: ethanol production and cell growth; details: LB+xylose; additive 2 g/L unless indicated
Experimental: as §1, §2, §6, §7, §3, §4, §5, §8, §9

[4] = 1% CSL+xylose, additive 2 g/L unless indicated
[5] = 24 h, read-out: Initial Growth (OD @ 24 h) % Control
[6] = 1% CSL+glucose, additive 2 g/L unless indicated

O=C(O)CC(C(=O)O)C(O)C(=O)O (stereo not drawn) [Isocitrate]
Initial Growth (OD @ 24 h) OD [1, 4]: 2.17 OD | activity at 2000 µg/mL [1, 5]: 106% | activity at 2000 µg/mL ([1]; read-out: Ethanol Production Maximum % Control): 110% | activity at 2000 µg/mL ([1]; read-out: Volumetric Productivity Average % Control): 110% | Initial Growth (OD @ 24 h) OD [2, 6]: 2.78 OD | Maximum Cell Density OD [2, 6]: 2.62 OD | activity at 2000 µg/mL [2, 5]: 104% | activity at 2000 µg/mL ([2]; read-out: Maximum Cell Density % Control): 97.6% | activity at 2000 µg/mL ([2]; read-out: Volumetric Productivity Maximum % Control): 114%

O=C(O)CCC(=O)C(=O)O [a-KG, α-ketoglutarate]
Maximum Cell Density % Control [1, 4]: 224.85% | Maximum Cell Density OD [1, 4]: 5.66 OD | Maximum Cell Density Time [1, 4]: 72 h | Volumetric Productivity Average [1, 4]: 0.588 grams ethanol/(liter)(hour) | Volumetric Productivity Average % Control [1, 4]: 187.59% | Volumetric Productivity Maximum [1, 4]: 0.866 grams ethanol/(liter)(hour) | Maximum Cell Density % Control [2, 6]: 128.90% | Maximum Cell Density OD [2, 6]: 3.46 OD | Maximum Cell Density Time [2, 6]: 72 h | Volumetric Productivity Average [2, 6]: 0.560 grams ethanol/(liter)(hour) | Volumetric Productivity Average % Control [2, 6]: 145.37% | Volumetric Productivity Maximum [2, 6]: 0.657 grams ethanol/(liter)(hour) | Volumetric Productivity Maximum % Control [2, 6]: 127.95% | Ethanol Production Maximum % Control [3]: 98.60% | Maximum Cell Density % Control [3]: 95.90% | Maximum Cell Density OD [3]: 10.59 OD | Maximum Cell Density Time [3]: 48 h | Volumetric Productivity Average [3]: 0.885 grams ethanol/(liter)(hour) | Volumetric Productivity Average % Control [3]: 98.60% | Volumetric Productivity Maximum [3]: 1.348 grams ethanol/(liter)(hour) | Volumetric Productivity Maximum % Control [3]: 117.02%
